## Antibody variant affinities, Ab-95 light chain, assay 2

Values reported by Engelhart et al. 2022, doi:10.1038/s41597-022-01779-4 (FLAb copy).

Target peptide (SARS-CoV-2 spike, HR2 region): PDVDLGDISGINAS

The variants keep the heavy chain, the linker and the frameworks of Ab-95 (scFv order VH, a 15-residue (Gly4Ser)3 linker, VL).
VH: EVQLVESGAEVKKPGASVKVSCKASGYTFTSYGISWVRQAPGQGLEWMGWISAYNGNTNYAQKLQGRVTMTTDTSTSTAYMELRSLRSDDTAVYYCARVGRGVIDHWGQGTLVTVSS
VL: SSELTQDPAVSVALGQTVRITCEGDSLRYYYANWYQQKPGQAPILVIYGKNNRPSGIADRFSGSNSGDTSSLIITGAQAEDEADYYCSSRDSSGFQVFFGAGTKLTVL

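The parent was found by panning a naive human phage display library on the peptide. The library (AAYL52) carries one to three amino acid substitutions per variant, with no insertions or deletions. Affinity was read by AlphaSeq, a pooled yeast mating assay with surface-displayed partners. Binding brings cells together so that they mate, and sequencing counts the barcode pairs among the diploids. A regression on co-assayed BCL2-family reference pairs converts the normalised counts of each replicate to an apparent Kd. The assay was run in three technical replicates.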

The parent's light chain CDRs are EGDSLRYYYAN, GKNNRPS, SSRDSSGFQVF; each variant's own CDRs replace them letter for letter. All variants listed here change D25 of the VL, counted from its first residue. The Kd shown is the geometric mean over detected replicates; a lower Kd is a better binder. An entry "nd" has no value in the source: the pair was not observed among the diploids in any replicate. This suggests poor binding but is not conclusive. Order: sorted from the lowest average up, undetected variants last. Three control strains display no target. For library AAYL52, 28% of the pairings with them gave a signal, with a median of 8.2 µM and one signal in twenty below 800 nM, so weak values seen in few replicates may be background. For each scFv, signals with the empty controls are counted beside the result.

For EGASLRYYYAN / GKNNRPS / MSRDSSGFQVF, the assay gave 7.4 nM (3 of 3 replicates; controls 0 of 9).
For HGFSLRYNYAN / GKNNRPS / SSRDSSGFQVF, the assay gave 17 nM (3 of 3 replicates; controls 3 of 9).
For AGESLRYYYAN / GKNNRPA / SSRDSSGFQVF, the assay gave 18 nM (3 of 3 replicates; controls 2 of 9).
For EGISLRYYYAN / GKNNRPS / SGRDSSGFQVF, the assay gave 67 nM (3 of 3 replicates; controls 4 of 9).
For EGMSLRYYYAN / GKNNRPS / SSRDSSGFQVF, the assay gave 160 nM (3 of 3 replicates; controls 2 of 9).
For EGKSLRYYYAN / GKNNRPS / SSRDSSGVQVF, the assay gave 170 nM (3 of 3 replicates; controls 2 of 9).
For EGWSLRYYYAN / GKNNRPS / ESRDSSGFQVF, the assay gave 220 nM (3 of 3 replicates; controls 3 of 9).
For EGMSLRYYYAN / GKNNRPS / TSRFSSGFQVF, the assay gave 270 nM (2 of 3 replicates; controls 0 of 9).
For EGISQRYYYAN / GKNNRPH / SSRDSSGFQVF, the assay gave 370 nM (3 of 3 replicates; controls 5 of 9).
For EGLSLRYYYAN / GKNNRPS / SSEDYSGFQVF, the assay gave 460 nM (3 of 3 replicates; controls 1 of 9).
For EGRSLRYYKAN / GKNNFPS / SSRDSSGFQVF, the assay gave 570 nM (2 of 3 replicates; controls 4 of 9).
For EGLSLRYKYAN / GKNKRPS / SSRDSSGFQVF, the assay gave 600 nM (3 of 3 replicates; controls 3 of 9).
For EGFPLRYYYYN / GKNNRPS / SSRDSSGFQVF, the assay gave 780 nM (3 of 3 replicates; controls 3 of 9).
For EGFSLFYYYAN / GKNNRPS / SSRDSSSFQVF, the assay gave 1.0 µM (3 of 3 replicates; controls 2 of 9).
For EGYSLRYYYAA / GKNNRPS / QSRDSSGFQVF, the assay gave 1.1 µM (3 of 3 replicates; controls 5 of 9).
For EGVSLRYLYAN / GKNNRPS / SSRDSSGAQVF, the assay gave 1.3 µM (3 of 3 replicates; controls 1 of 9).
For EGLSLRYYYAN / GKNNRPS / SSRDFSGGQVF, the assay gave 1.3 µM (3 of 3 replicates; controls 4 of 9).
For EGLSLRYYYAN / GKNNRPS / STRDSSGFQVF, the assay gave 1.6 µM (3 of 3 replicates; controls 2 of 9).
For EGMSLRYYYAN / GRNNRPS / SHRDSSGFQVF, the assay gave 1.9 µM (3 of 3 replicates; controls 0 of 9).
For EGHSLRYYYAN / GKNTRFS / SSRDSSGFQVF, the assay gave 2.3 µM (3 of 3 replicates; controls 2 of 9).
For EGYSLRYYYAN / GKNNRPS / SSPDSGGFQVF, the assay gave 2.4 µM (1 of 3 replicates; controls 3 of 9).
For EGISLRYYYWN / GKNNRPS / SSRDSSGLQVF, the assay gave 2.5 µM (1 of 3 replicates; controls 1 of 9).
For EGHSKRYYYAN / GKNNRPS / SSRDSSGFQVF, the assay gave 2.5 µM (2 of 3 replicates; controls 1 of 9).
For EGNHLRYYYLN / GKNNRPS / SSRDSSGFQVF, the assay gave 3.1 µM (3 of 3 replicates; controls 3 of 9).
For EGAELRYYYAN / GKNNRPS / SSRDSSGYQVF, the assay gave 3.2 µM (3 of 3 replicates; controls 1 of 9).
For EGISLRYYYAN / GKNNRPS / ISRDSSGLQVF, the assay gave 3.4 µM (2 of 3 replicates; controls 5 of 9).
For EGYSRRYYYAN / GKNNRPS / SRRDSSGFQVF, the assay gave 4.3 µM (1 of 3 replicates; controls 1 of 9).
For EGWSLRYYYAN / GKNNRPS / SCRDSSGFQVE, the assay gave 4.3 µM (3 of 3 replicates; controls 5 of 9).
For ELGSLRYYYAN / GKNDRPS / SSRDSSGFQVF, the assay gave 4.5 µM (3 of 3 replicates; controls 4 of 9).
For EFNSLRYYYAN / GKNNRPS / SSRDSSWFQVF, the assay gave 4.8 µM (1 of 3 replicates; controls 1 of 9).
For EGMSLRYYYAN / EKNNRPS / SSRDSSGGQVF, the assay gave 6.1 µM (3 of 3 replicates; controls 4 of 9).
For EGSCLRYYYAN / GKNNRPS / SSRDSPGFQVF, the assay gave 19 µM (3 of 3 replicates; controls 1 of 9).
For EGWSLRYYYFN / GKNNRPS / SSRDSSGFQVF, the assay gave 26 µM (2 of 3 replicates; controls 1 of 9).
For EGGWLRYYYAN / GHNNRPS / SSRDSSGFQVF, the assay gave 28 µM (3 of 3 replicates; controls 4 of 9).
For EGWSLRYYKAN / GKNNRPS / SSRWSSGFQVF, the assay gave nd (0 of 3 replicates; controls 2 of 9).
For EGGSLRYYYAN / GKNNRPS / SSEVSSGFQVF, the assay gave nd (0 of 3 replicates; controls 1 of 9).
For EGASLRYYYAN / GYNNRPS / SSFDSSGFQVF, the assay gave nd (0 of 3 replicates; controls 1 of 9).

Picked from the list: the 3 lowest averages where every replicate gave a value.

CDR-L1	CDR-L2	CDR-L3	apparent Kd	replicates with signal	signal with controls
EGASLRYYYAN	GKNNRPS	MSRDSSGFQVF	7.4 nM	3/3	0/9
HGFSLRYNYAN	GKNNRPS	SSRDSSGFQVF	17 nM	3/3	3/9
AGESLRYYYAN	GKNNRPA	SSRDSSGFQVF	18 nM	3/3	2/9